Laboratory results as given in PubChem BioAssay AID504357 (The Scripps Research Institute Molecular Screening Center, 2011).
Only a part is listed here, and it is no random draw. Calls of active or inactive are those of the source. Cut-off read from the data, not from the text of the source: active = inhibition above about 22% (passing the limit was not always enough); inactive = the rest.

Chains of the proteins cited; added tags and fusions are not shown.
UniProt P35372, whole entry, looked up: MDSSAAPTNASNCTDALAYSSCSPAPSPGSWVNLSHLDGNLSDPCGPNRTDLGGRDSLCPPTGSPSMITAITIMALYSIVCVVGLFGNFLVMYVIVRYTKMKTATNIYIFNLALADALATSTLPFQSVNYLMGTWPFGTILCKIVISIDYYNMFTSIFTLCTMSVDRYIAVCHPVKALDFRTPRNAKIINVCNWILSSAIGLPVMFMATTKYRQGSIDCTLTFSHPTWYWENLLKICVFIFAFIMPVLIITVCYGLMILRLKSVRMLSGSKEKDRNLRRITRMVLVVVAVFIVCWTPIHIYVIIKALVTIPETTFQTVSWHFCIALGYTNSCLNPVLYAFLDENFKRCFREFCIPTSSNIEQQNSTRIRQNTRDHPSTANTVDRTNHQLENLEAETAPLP
UniProt P41143, whole entry, looked up: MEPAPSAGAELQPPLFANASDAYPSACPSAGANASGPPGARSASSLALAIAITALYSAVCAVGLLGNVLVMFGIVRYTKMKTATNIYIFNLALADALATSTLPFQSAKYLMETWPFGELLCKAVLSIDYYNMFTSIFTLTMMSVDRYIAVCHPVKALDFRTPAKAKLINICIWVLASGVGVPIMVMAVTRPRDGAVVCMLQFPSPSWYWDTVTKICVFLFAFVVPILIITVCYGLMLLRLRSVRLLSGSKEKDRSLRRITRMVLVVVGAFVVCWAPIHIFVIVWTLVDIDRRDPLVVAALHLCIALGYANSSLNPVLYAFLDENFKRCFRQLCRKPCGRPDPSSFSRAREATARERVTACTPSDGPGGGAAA

What follows are molecules tested against Mu-type opioid receptor (Homo sapiens) + Delta-type opioid receptor (Homo sapiens) (UniProt P35372+P41143) (assay: inverse agonists of MOR-DOR heterodimerization, primary screen, cell-based, luminescence (AID 504357;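 note: 0% = cells with DMSO and 100% = wells without cells with DMSO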)). Conditions: cell-based MOR-DOR heterodimer luminescence, inverse agonism; at 9.3 µM; stronger effect = higher value.

| SMILES | inhibition |
| --- | --- |
| COC(=O)c1ccc(CNC(=O)Cn2cnc3c(SC)nc(N)nc32)cc1 | inactive: 19.1% |
| Cc1nc2ccccc2n1C1CCN(Cc2nnnn2CCc2ccccc2)CC1 | inactive: -1.21% |
| Oc1ccccc1CNc1nc2ccccc2n1CCN1CCCCC1 | inactive: -1.82% |
| CC1c2nc3ccccc3n2C(CC(=O)NCc2ccccn2)C(=O)N1Cc1ccccc1 (centres undefined) | inactive: 10.7% |
| O=C(Nc1nc2ccccc2n1CCN1CCCC1)c1ccc(Cl)cc1 | inactive: -17.3% |
| CC(=O)Nc1ccc(C(=O)CSc2nc3ccccc3n2CC(=O)N2CCCC2)cc1 | inactive: 8.44% |
| CC(C)[C@H](NC(=O)N1CCn2c1nc1ccccc12)C(=O)NC1CCCCC1 | inactive: 19.2% |
| CCN(CC)CCNC(=S)N1CCn2c(nc3ccccc32)C1 | inactive: 12.6% |
| Nc1ncnc2c1ncn2CCN1CCOCC1 | inactive: 15.5% |
| Cc1ccc2c(c1)C1CN(C)CCC1N2C(=O)COc1ccc(N(C)C(=O)C(C)(C)C)cc1 (centres undefined) | inactive: 7.57% |
| Cc1ccc2c(c1)C1CN(C)CCC1N2C(=O)c1cccs1 (centres undefined) | inactive: 6.93% |
| COc1ccc(/C=N/c2nc3ccccc3n2CCN2CCCCC2)cc1OC | inactive: 6% |
| Cc1cc(SC(NC(=O)c2ccccc2)C(Cl)(Cl)Cl)nc(C(C)C)n1 (centres undefined) | inactive: -1.05% |
| CC(=O)Nc1ccc(NC(=O)Cn2c(CC(=O)N3CCCC3)nc3ccccc32)cc1 | inactive: 10.8% |
| Cc1ccc(-c2csc(N3CCC[C@@H]3C(=O)NCCn3c(C(F)(F)F)nc4ccccc43)n2)cc1 | inactive: -11% |
| CCCNC(=O)CC1C(=O)N(Cc2ccccc2)C(C)c2nc3ccccc3n21 (centres undefined) | inactive: -3.95% |
| CCCN(C(=O)Cn1c(C(F)(F)F)nc2ccccc21)C1CCS(=O)(=O)C1 (centres undefined) | inactive: 6.1% |
| CC(C)[C@H](NC(=O)N1CCn2c1nc1ccccc12)C(=O)N1CCCCC1 | inactive: 1.86% |
| CSc1nc(N)nc2c1ncn2CC(=O)NCc1ccccc1 | inactive: 1.52% |
| COc1ccc(S(=O)(=O)N2CCn3c2nc2ccccc23)cc1 | inactive: -2.37% |
| Nc1ncnc2c1ncn2CCNCCc1ccccc1 | inactive: 11.6% |
| O=C(Cn1c(C(F)(F)F)nc2ccccc21)NCCCN1CCOCC1 | inactive: 14.4% |
| Cc1ccc2c(c1)C1CN(C)CCC1N2C(=O)COc1ccccc1F (centres undefined) | inactive: 3.61% |

| SMILES | inhibition |
| --- | --- |
| Cc1ccc(S(=O)(=O)c2nc(-c3ccccc3Cl)oc2N(C)C2CCN(C)CC2)cc1 | inactive: -3.48% |
| CCOC(=O)Nc1ccc([As](=O)(O)O)c(O)c1 | inactive: 7.33% |
| Cc1cc(C)cc(N(CC(=O)N2CCn3c2nc2ccccc23)S(=O)(=O)c2c(C)noc2C)c1 | inactive: 9.09% |
| CC(C)C[C@H](NC(=O)N1CCn2c1nc1ccccc12)C(=O)NCCc1ccccc1 | inactive: 6.61% |
| CCCCC(=O)Nc1nnc(/C=C/c2ccc(OC)cc2)s1 | inactive: -11.2% |
| Cc1ccc(N(CC(=O)N2CCn3c2nc2ccccc23)S(=O)(=O)c2c(C)n[nH]c2C)cc1 | inactive: 7.49% |
| C[C@H](O)[C@@H]1C(=O)N2CCc3ccc(N4CCN(C)CC4)cc3[C@@H]2C[C@@H]1N(C)C(=O)NC1CCCCC1 | inactive: 2.06% |
| CC1CCNP(=O)(N(CCCl)CCCl)O1 (centres undefined) | inactive: 10.4% |
| COCC(=O)N(C)[C@H]1C[C@H]2c3cc(-c4ccccc4)ccc3CCN2C(=O)[C@H]1[C@H](C)O | inactive: 12.1% |
| Cn1c(=O)c2c(ncn2CC(=O)N/N=C/c2ccc(Br)s2)n(C)c1=O | inactive: 4.13% |
| COC(=O)c1ccccc1NC(=O)Cn1cnc2c1c(=O)n(C)c(=O)n2C | inactive: 7.6% |
| Cn1c(=O)n(Cc2ccccc2)c(=O)c2c1nc1n2CCN1Cc1ccco1 | inactive: 16.5% |
| CCc1nc2ccccc2n1CC(=O)N1CCN(S(=O)(=O)c2cccc(C(F)(F)F)c2)CC1 | inactive: 3.95% |
| O=P(Nc1ccccn1)(c1cccc2ccccc12)c1cccc2ccccc12 | inactive: 7.94% |
| COc1ccccc1C(=O)OCCNC(=O)Cn1cnc2c1c(=O)n(C)c(=O)n2C | inactive: 2.96% |
| Cc1cc(SC(NC=O)C(Cl)(Cl)Cl)ncn1 (centres undefined) | inactive: 12.9% |
| CC(C)(C)NC(=O)Cn1c(SCC(=O)NC2CCCCC2)nc2ccccc21 | inactive: 13.9% |
| CCCNC(=O)Cn1c(=O)n(C)c2ccccc21 | inactive: 2.96% |
| CCNC(=S)N1CCn2c(nc3ccccc32)C1 | inactive: 3.44% |
| CC1CN(Cc2nc3c(c(=O)n(C)c(=O)n3C)n2CCN2CCOCC2)CC(C)O1 (centres undefined) | inactive: 15% |
| O=C(Cn1c(CCCO)nc2ccccc21)Nc1ccccc1-c1ccccc1 | inactive: 10.6% |
| C/C(=N\NC(=O)Cn1c(C)nc2ccccc21)c1cccs1 | inactive: 22.4% |
| O=[N+]([O-])c1ccc(Nc2ccc(Oc3ccc([N+](=O)[O-])cc3[N+](=O)[O-])cc2)c([N+](=O)[O-])c1 | inactive: 13.1% |

| SMILES | inhibition |
| --- | --- |
| O=C(Cn1c(CC(=O)N2CCOCC2)nc2ccccc21)Nc1ccc2c(c1)OC(F)(F)O2 | inactive: 10.4% |
| O=C(Cn1cnc2c(OCc3ccccc3)ncnc21)NCCCc1ccccc1 | inactive: 7.69% |
| CCC(=O)Nc1nnc(/C=C/c2ccccc2)s1 | inactive: -6.95% |
| COCCN1CCn2c(nc3cc(NC(=O)c4ccc(OC)cc4)ccc32)C1 | inactive: -8.01% |
| CCS(=O)(=O)c1nc2ccccc2n1CC(=O)N1CCOCC1 | inactive: 12.9% |
| CCC(C)c1ccc2oc(-c3ccc(NC(=O)Cn4cnc5c(=O)n(C)c(=O)n(C)c54)cc3)nc2c1 (centres undefined) | inactive: 8.08% |
| CCC[n+]1cn(/C(C(=S)Nc2cccc(Cl)c2C)=C(/[O-])c2ccc(OC)c(OC)c2)c2ccccc21 | inactive: 27.9% |
| Cn1c(=O)c2c(ncn2CC(=O)N2CCc3ccccc3C2)n(C)c1=O | inactive: 13.1% |
| Cc1ccc2c(c1)[C@@H]1CN(C)CC[C@@H]1N2S(=O)(=O)c1ccc([N+](=O)[O-])cc1 | inactive: -24.5% |
| O=C(CCCCCNC(=O)N1CCn2c1nc1ccccc12)NCCc1ccccc1 | inactive: 19.3% |
| COc1ccc(OCC(=O)N2c3ccc(C)cc3C3CN(C)CCC32)cc1 (centres undefined) | inactive: -1.21% |
| NNC(=O)Cn1c(-c2ccccn2)nc2ccccc21 | inactive: -5.56% |
| COc1cc(NC(=O)[C@H](C)NC(=O)N2CCn3c2nc2ccccc23)cc(OC)c1 | inactive: 15.3% |
| O=C(Cn1c(CO)nc2ccccc21)Nc1ccc2c(c1)OCCCO2 | inactive: 3.41% |
| Cn1c(=O)[nH]c(=O)c2c1ncn2CCN1CCCCC1 | inactive: 9.99% |
| COC(=O)C[C@H](NC(=O)Cn1cnc2c(OCc3ccccc3)ncnc21)C(=O)OC | inactive: 1.48% |
| CCOC(=O)Nc1cccc([As](=O)(O)O)c1 | inactive: 6.02% |
| Cn1c(=O)c2c(ncn2CC(=O)NCc2cccnc2)n(C)c1=O | inactive: -2.62% |
| Cc1ccc(NC(=O)Cn2c(=S)[nH]c3ccccc32)cc1 | inactive: 6.49% |
| O=C(C1CCCN(S(=O)(=O)c2cccnc2)C1)N1CCn2c1nc1ccccc12 (centres undefined) | inactive: 0.33% |
| O=C(Cn1cnc2ccccc21)Nc1ccc(SC(F)F)cc1 | inactive: -14.1% |
| CC(NC(=O)Cn1cnc2c1c(=O)n(C)c(=O)n2C)c1ccccc1 (centres undefined) | inactive: -6.08% |
| COc1ccc(CNC(=O)Cn2cnc3c(NCc4ccccc4)ncnc32)cc1 | inactive: 20.9% |

| SMILES | inhibition |
| --- | --- |
| c1ccc(Cn2c(CNc3nc4ccccc4n3CCN3CCOCC3)nc3ccccc32)cc1 | inactive: 12.8% |
| Cc1nc2cc(C(F)(F)F)ccc2n1CCNc1nc(-c2ccc(F)cc2)cs1 | inactive: -3.83% |
| CCOCN(C(=O)Cn1cnc2ccccc21)c1c(C)cccc1CC | inactive: 11.3% |
| CCC(C(=O)NC1CCCCC1)n1c(SCc2cccc(C)c2)nc2ccncc21 (centres undefined) | inactive: 0.74% |
| O=C(Nc1ccncc1[N+](=O)[O-])c1ccc([N+](=O)[O-])cc1[N+](=O)[O-] | inactive: -31.8% |
| O=C(COc1ccccc1)OC1CN2CCC1CC2 (centres undefined) | inactive: 8.96% |
| O=C(Cn1cnc2ccccc21)Nc1ccc(F)c(F)c1 | inactive: -9.9% |
| COC(=O)c1cccc(NC(=O)Cn2cnc3c2c(=O)n(C)c(=O)n3C)c1 | inactive: 8.05% |
| Cc1ccc2c(c1)C1CN(C)CCC1N2S(=O)(=O)c1cccc(C(F)(F)F)c1 (centres undefined) | inactive: -6.53% |
| O=C(Cn1cnc2c(OCc3ccccc3)ncnc21)N1CCN(c2ccccn2)CC1 | inactive: 2.18% |
| N#CCC(=O)N/N=C\c1cccc(OC/C=C/c2ccccc2)c1 | inactive: -18.8% |
| CC(C)[C@H](NC(=O)N1CCn2c1nc1ccccc12)C(=O)N[C@H](Cc1ccccc1)C(=O)O | inactive: 6.33% |
| O=C(Nc1ccccc1C(F)(F)F)N1CCC(n2c(=O)[nH]c3ccccc32)CC1 | inactive: 7.07% |
| Cc1ccc(C)c(S(=O)(=O)N2CCN(C(=O)Cn3cnc4c3c(=O)n(C)c(=O)n4C)CC2)c1 | inactive: 1.24% |
| CN(C)CCn1c(NCc2ccc3c(c2)OCO3)nc2ccccc21 | inactive: 11.2% |
| COC(=O)C[C@H](NC(=O)Cn1cnc2c(NCc3ccccc3)ncnc21)C(=O)OC | inactive: 10.5% |
| COP1(=S)c2c(C)nn(CCC#N)c2N=C(c2ccc(F)cc2)N1C (centres undefined) | inactive: 9.8% |
| CSc1nc(N)nc2c1ncn2CC(=O)Nc1ccc(C)c(C)c1 | inactive: 8.64% |
| N=c1n(CCN2CCCCC2)c2ccccc2n1CC(=O)c1cccs1 | inactive: 3.86% |
| COc1ccc2c(c1)C1(Nc3ccccc3-c3nc4ccccc4n31)C(=O)N2C (centres undefined) | inactive: 11.2% |
